An excerpt weighted towards active compounds, which were near 1.8% of everything screened.
E-sel inducer: E-selectin induction in HUVECs, primary screen, imaging, HUVEC, immunofluorescence imaging, single point | P16581 | AID 686992, 2013 | activation, % at 7.58 µM | 260,000 tested, 0.37% active | normalized: neutral wells 0, TNF-alpha wells 100;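 active = mean E-selectin-positive cell signal at least 10% of the positive control, reached in at least 60% of replicates, without over 20% cell loss; inconclusive = no rule given, readout overlaps actives, possibly toxicity-flagged; inactive = the rest, including those meeting only one limit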
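System: HUVEC, human umbilical vein endothelial cells; quantity: 3,000 cells/well; buffer or medium: EGM-2 medium, gelatin-coated wells; dosing: single-point compound dose; detection: immunofluorescence imaging; evaluation: % PE-positive cells; benchmarks: TNF-alpha, DMSO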
UUG fidelity: yeast start codon fidelity modulation | S. cerevisiae UUG-firefly luciferase reporter, luminescence/redox ratio | activity score, % at 18.7 µM | 350,000 tested, 0.13% active;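 active = replicate mean at a twofold rise or more, about +100% in these data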;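 also: firefly luciferase made from a UUG start codon reports start codon fidelity; reporter light over untreated wells divided by growth signal over untreated wells; some hits fall short of that in this replicate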
DENV2 CPE rescue: inhibitors of DENV2 cytopathic effect, primary screen, cell-based, plate reader, single concentration; CPE inhibition, % at 9.99 µM; AID 651640, 2012; DENV2-infected cells, cytopathic effect rescue; 350,000 tested, 1.7% active; in the data active = CPE inhibition above about 20%, passing the limit was not always enough; inconclusive = no clear call, values can overlap the other calls; tested in BHK-21 cells;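 also: 0% = median of neutral control wells and 100% = median of positive control wells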
Cneo AK release: Cryptococcus neoformans cell lysis inducers, primary screen, AK release luminescence, single concentration; C. neoformans lysis, adenylate kinase release luminescence, 4 h; normalised: neutral wells 0, clomiphene wells 100; lysis activity, % at 15 µM; 360,000 tested, 0.2% active;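 active = mean lysis activity across replicates of at least 80%, whatever share of replicates individually reach that level; inactive = mean lysis activity below 80%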
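Material – Cryptococcus neoformans yeast cells · Quantity – 5 × 10^6 yeast cells/mL · Buffer or medium – YPD medium · Compound – single dose · Timing – 4 h static compound exposure, 37 °C, read 1 h post-reagent · Signal – adenylate kinase release luminescence · Read-out basis – lysis from increased AK signal · Benchmarks – Clomiphene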
An asterisk follows results filed as active; ? = inconclusive; nt = not tested or not shown.

No.	SMILES	E-sel inducer	UUG fidelity	DENV2 CPE rescue	Cneo AK release
1	CC(=O)CC(=O)O[C@@H]1C=C[C@H](NC(=O)OC(C)(C)C)C1	-0.1	nt	29.4*	nt
2	O=S(=O)(Nc1cccc(-n2cnnn2)c1)c1ccccc1	nt	-21.0	5.7	0.7
3	O=S(=O)(Nc1cccc(-n2cnnn2)c1)c1cccc(Cl)c1	nt	nt	59.3*	nt
4	C[C@H]1CN([C@@H](C)CO)C(=O)c2cccc(NC(=O)Nc3ccc(F)cc3)c2O[C@H]1CN(C)C	0.0	17.5	?	37.3
5	C/C=C(\C)CN1CCC(n2nccc2NC(=O)CCc2ccccc2)CC1	-0.3	-13.6	100.7*	-1.7
6	CCOc1ncccc1C(=O)OCC(=O)c1ccc[nH]1	nt	-4.7	nt	-2.0
7	Nc1nccnc1C(=O)OCC(=O)c1ccc[nH]1	nt	-17.4	33.1*	1.6
8	CO[C@@H]1CN(C)C(=O)c2ccc(NC(=O)Nc3ccc(Cl)cc3)cc2OC[C@H](C)N(C(=O)Nc2c(C)noc2C)C[C@H]1C	0.1	0.1	?	-2.4
9	COc1cccc(NC(=O)CN(C)C(=O)c2cccc(S(=O)(=O)N3c4ccccc4CC3C)c2)c1 (centres undefined)	0.5	35.3	57.8*	0.1
10	Cc1noc(C)c1S(=O)(=O)Nc1ccc2c(c1)C(=O)N([C@@H](C)CO)C[C@@H](C)[C@@H](CN(C)Cc1ccncc1)OCCCC[C@@H](C)O2	0.2	12.2	5.3	-0.5
11	C[C@H]1CN([C@@H](C)CO)C(=O)CCCn2cc(nn2)CO[C@H]1CN(C)Cc1cccc(O)c1	-0.1	nt	-2.0	50.3
12	Cc1noc(C)c1NC(=O)N(C)C[C@@H]1Oc2ccc(NC(=O)NC3CCCCC3)cc2CC(=O)N([C@@H](C)CO)C[C@H]1C	-0.2	-6.5	23.7*	-1.3

Look-ups from above:
Under UUG fidelity, #2 is entered as -21.0
Under Cneo AK release, #7 is entered as 1.6

New compounds follow:
No.	SMILES	E-sel inducer	UUG fidelity	DENV2 CPE rescue	Cneo AK release
13	Cc1noc(C)c1NC(=O)Nc1ccc2c(c1)CC(=O)N([C@@H](C)CO)C[C@@H](C)[C@@H](CN(C)C(=O)NC1CCCCC1)O2	0.2	-11.3	-5.2	-1.9
14	Cc1noc(C)c1NC(=O)N(C)C[C@H]1Oc2ccc(NC(=O)NC3CCCCC3)cc2CC(=O)N([C@H](C)CO)C[C@H]1C	-0.1	-1.1	21.6*	-2.1
15	C[C@H](CO)N1C[C@H](C)[C@@H](CN(C)Cc2ccc(C(F)(F)F)cc2)Oc2ccc(NC(=O)C3CC3)cc2CC1=O	-0.3	6.5	-1.9	40.9
16	CCN1CCN(CC(=O)Nc2nc3ccc(C)cc3s2)CC1	nt	-22.7	24.6*	0.0
17	O=C(COC(=O)/C=C/c1ccccc1)Nc1cccnc1Cl	nt	-12.9	-5.4	1.3
18	O=C(COC(=O)/C=C/c1cccc([N+](=O)[O-])c1)Nc1cccnc1Cl	123.8*	nt	6.0	nt
19	COc1ccc(NC(=O)N[C@@H]2CC[C@@H](CCn3cc(-c4ccccc4F)nn3)O[C@H]2CO)cc1	0.0	4.6	2.5	-3.4
20	CCCC#Cc1ccc([C@H]2[C@H](CO)N3C(=O)CN(C(=O)Nc4ccc(F)cc4)C[C@@H]23)cc1	0.1	nt	-2.1	nt
21	O=C(CC1CC1)N1CC(=O)N2[C@@H](CO)[C@@H](c3ccc(C#Cc4cccc(F)c4)cc3)[C@@H]2C1	0.1	nt	28.6*	nt
22	O=C1CN(S(=O)(=O)Cc2ccccc2)C[C@H]2[C@H](c3ccc(C#Cc4ccc(F)cc4)cc3)[C@@H](CO)N12	-0.8	nt	37.5*	nt
23	CCCC#Cc1ccc([C@@H]2[C@@H](CO)N3C(=O)CN(C(=O)Nc4ccc(F)cc4)C[C@H]23)cc1	0.9	nt	36.1*	nt
24	COc1ccccc1NC(=O)N1CC(=O)N2[C@H](C1)[C@@H](c1ccc(C#Cc3ccc(F)cc3)cc1)[C@@H]2CO	-0.8	nt	68.6*	nt

Further records follow:
No.	SMILES	E-sel inducer	UUG fidelity	DENV2 CPE rescue	Cneo AK release
25	O=C(O)C[C@H]1C[C@@H]2c3cc(NC(=O)CC4CC4)ccc3O[C@@H]2[C@H](CO)O1	-0.6	-10.0	1.1	-7.7
26	CCCC#Cc1ccc([C@H]2[C@H]3CN(C(=O)NC4CCCC4)CC(=O)N3[C@H]2CO)cc1	-0.3	nt	10.6	nt
27	CCCC#Cc1ccc([C@@H]2[C@H]3CN(C(=O)NC4CCCC4)CC(=O)N3[C@H]2CO)cc1	-0.1	nt	22.2*	nt
28	CC(C)NC(=O)N1CC(=O)N2[C@@H](CO)[C@@H](c3ccc(C#CCN(C)C)cc3)[C@@H]2C1	-0.3	nt	10.6	nt
29	CC(C)NC(=O)N1CC(=O)N2[C@H](CO)[C@H](c3ccc(C#CCN(C)C)cc3)[C@@H]2C1	0.3	nt	23.2*	nt
30	COc1cccc(NC(=S)NN2CCN(C)CC2)c1	nt	-25.3	nt	-1.4
31	CN1CCN(NC(=S)Nc2ccc(Oc3ccccc3)cc2)CC1	223.1*	nt	1.9	nt
32	Oc1ccc(Cl)cc1CNCc1ccc(F)cc1	0.1	-19.6	23.2*	-3.2
33	Cc1noc(C)c1NC(=O)Nc1ccc2c(c1)C(=O)N([C@H](C)CO)C[C@@H](C)[C@@H](CN(C)C(=O)Nc1ccc(C(F)(F)F)cc1)OCCCC[C@@H](C)O2	0.0	-4.7	-5.6	1.1
34	CN(Cc1ccsc1)C(=O)CCc1nnc(CCCc2ccccc2)o1	27.3*	-3.1	1.9	-1.8
35	CS(=O)(=O)N1CCCCN2[C@@H](CO)[C@@H](c3ccc(C4=CCCC4)cc3)[C@@H]2C1	0.0	-0.5	29.2*	-1.0
36	CS(=O)(=O)N1CCCCN2[C@H](CO)[C@H](c3ccc(C4=CCCC4)cc3)[C@@H]2C1	-0.2	8.6	29.4*	-1.0

Screen by screen, quoted from above:
DENV2 CPE rescue, entries 12–23: 23.7*, -5.2, 21.6*, -1.9, 24.6*, -5.4, 6.0, 2.5, -2.1, 28.6*, 37.5*, 36.1*

4 entries from above, screen by screen.
27) CCCC#Cc1ccc([C@@H]2[C@H]3CN(C(=O)NC4CCCC4)CC(=O)N3[C@H]2CO)cc1
28) CC(C)NC(=O)N1CC(=O)N2[C@@H](CO)[C@@H](c3ccc(C#CCN(C)C)cc3)[C@@H]2C1
29) CC(C)NC(=O)N1CC(=O)N2[C@H](CO)[C@H](c3ccc(C#CCN(C)C)cc3)[C@@H]2C1
30) COc1cccc(NC(=S)NN2CCN(C)CC2)c1

assay / compound	27	28	29	30
E-sel inducer	-0.1	-0.3	0.3	nt
UUG fidelity	nt	nt	nt	-25.3
DENV2 CPE rescue	22.2*	10.6	23.2*	nt
Cneo AK release	nt	nt	nt	-1.4

Carrying on:
No.	SMILES	E-sel inducer	UUG fidelity	DENV2 CPE rescue	Cneo AK release
37	CS(=O)(=O)N1CCCCN2[C@H](C1)[C@H](c1ccc(C3=CCCC3)cc1)[C@@H]2CO	-0.2	-5.7	-9.0	-1.1
38	CS(=O)(=O)N1CCCCN2[C@H](CO)[C@@H](c3ccc(C4=CCCC4)cc3)[C@H]2C1	0.0	-6.2	0.1	-0.4
39	CN1[C@@H]2Cn3c(ccc(-c4cccc(F)c4)c3=O)[C@H]1[C@@H](C(=O)NCc1ccccc1)[C@@H]2CO	0.3	nt	-6.6	3.6
40	CN1CCN(C(=O)C[C@@H]2CC[C@H]3[C@H](COc4ccc(NC(=O)C5CCC5)cc4C(=O)N3C)O2)CC1	-0.1	nt	6.5	nt
41	COc1ccc(NC(=O)N(C)C[C@@H]2Oc3ccc(NS(=O)(=O)c4ccc(C)cc4)cc3CC(=O)N([C@H](C)CO)C[C@H]2C)cc1	1.1	nt	nt	nt
42	N#Cc1c(N)[nH]c(C(=O)c2ccccc2)c1-c1ccc(Br)cc1	0.3	nt	57.1*	nt
43	CC(=O)N1[C@@H](CO)[C@H](c2ccc(-c3ccc(F)cc3)cc2)[C@@H]1CNC(=O)C1CC1	-0.1	2.7	-2.6	-0.7
44	O=C(NC[C@@H]1[C@H](c2ccccc2)[C@@H](CO)N1C(=O)Cc1cccnc1)C1CCC1	-0.1	6.5	?	84.2*
45	CC(=O)N1[C@H](CO)[C@H](c2ccc(-c3ccccc3)cc2)[C@@H]1CNC(=O)C1CC1	0.2	1.8	-4.3	104.7*
46	CC(=O)N1[C@H](CO)[C@@H](c2ccc(-c3cccc(F)c3)cc2)[C@H]1CNC(=O)C1CC1	0.1	2.0	124.2*	-0.9
47	O=C(NC[C@H]1[C@@H](c2ccccc2)[C@H](CO)N1C(=O)Cc1cccnc1)C1CCC1	1.1	-13.4	14.3	-1.7
48	COCC(=O)Nc1ccc2c(c1)OC[C@@H](C)N(C(=O)Cc1cccnc1)C[C@H](C)[C@H](OC)CN(C)C2=O	-0.2	17.1	-7.9	11.7

Compound activity: PubChem, Broad Institute
